The chains behind the UniProt entries cited, without tags or fusion partners.
UniProt P51532, whole entry: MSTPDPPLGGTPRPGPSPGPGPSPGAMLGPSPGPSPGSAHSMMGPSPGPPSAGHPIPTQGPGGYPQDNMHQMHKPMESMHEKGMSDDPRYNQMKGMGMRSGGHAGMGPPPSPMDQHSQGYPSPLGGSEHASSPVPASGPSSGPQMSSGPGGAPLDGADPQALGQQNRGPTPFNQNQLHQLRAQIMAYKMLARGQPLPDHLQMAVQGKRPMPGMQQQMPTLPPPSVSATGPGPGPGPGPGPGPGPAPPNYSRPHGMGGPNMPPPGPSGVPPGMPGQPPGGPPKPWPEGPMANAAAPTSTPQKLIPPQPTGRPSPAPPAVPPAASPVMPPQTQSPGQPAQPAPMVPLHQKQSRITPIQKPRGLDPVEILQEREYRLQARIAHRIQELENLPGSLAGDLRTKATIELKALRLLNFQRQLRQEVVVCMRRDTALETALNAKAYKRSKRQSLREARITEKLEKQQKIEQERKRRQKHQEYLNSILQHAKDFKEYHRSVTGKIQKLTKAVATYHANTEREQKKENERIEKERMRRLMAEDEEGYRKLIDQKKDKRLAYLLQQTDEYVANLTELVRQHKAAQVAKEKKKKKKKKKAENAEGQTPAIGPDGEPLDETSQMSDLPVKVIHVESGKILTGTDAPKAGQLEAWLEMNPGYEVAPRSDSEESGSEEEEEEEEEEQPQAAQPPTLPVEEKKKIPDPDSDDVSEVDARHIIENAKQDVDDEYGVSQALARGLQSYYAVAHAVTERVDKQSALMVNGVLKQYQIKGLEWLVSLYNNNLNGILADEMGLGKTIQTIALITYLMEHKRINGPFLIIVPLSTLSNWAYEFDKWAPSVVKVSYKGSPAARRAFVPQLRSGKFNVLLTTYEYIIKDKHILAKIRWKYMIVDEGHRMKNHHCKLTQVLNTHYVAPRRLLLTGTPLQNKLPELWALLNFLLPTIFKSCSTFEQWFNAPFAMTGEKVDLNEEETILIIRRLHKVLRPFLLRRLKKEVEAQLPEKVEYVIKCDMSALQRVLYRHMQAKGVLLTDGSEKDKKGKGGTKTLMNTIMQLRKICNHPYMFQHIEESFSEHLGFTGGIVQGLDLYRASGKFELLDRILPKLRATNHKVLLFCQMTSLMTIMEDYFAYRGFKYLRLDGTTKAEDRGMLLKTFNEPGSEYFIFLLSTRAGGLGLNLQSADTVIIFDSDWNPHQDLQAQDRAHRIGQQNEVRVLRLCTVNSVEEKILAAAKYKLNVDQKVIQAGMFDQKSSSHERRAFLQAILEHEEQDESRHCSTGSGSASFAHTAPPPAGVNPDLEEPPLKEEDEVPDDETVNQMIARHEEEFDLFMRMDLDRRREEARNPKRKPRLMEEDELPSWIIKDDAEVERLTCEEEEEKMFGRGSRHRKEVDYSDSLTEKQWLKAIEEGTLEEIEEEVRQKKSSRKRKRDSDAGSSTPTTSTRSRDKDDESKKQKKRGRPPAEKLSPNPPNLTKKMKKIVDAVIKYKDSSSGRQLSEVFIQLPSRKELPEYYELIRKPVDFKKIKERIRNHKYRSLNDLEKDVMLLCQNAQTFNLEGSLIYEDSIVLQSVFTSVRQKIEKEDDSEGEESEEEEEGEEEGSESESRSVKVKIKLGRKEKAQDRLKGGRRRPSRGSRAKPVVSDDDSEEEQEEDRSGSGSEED
UniProt P51531, whole entry: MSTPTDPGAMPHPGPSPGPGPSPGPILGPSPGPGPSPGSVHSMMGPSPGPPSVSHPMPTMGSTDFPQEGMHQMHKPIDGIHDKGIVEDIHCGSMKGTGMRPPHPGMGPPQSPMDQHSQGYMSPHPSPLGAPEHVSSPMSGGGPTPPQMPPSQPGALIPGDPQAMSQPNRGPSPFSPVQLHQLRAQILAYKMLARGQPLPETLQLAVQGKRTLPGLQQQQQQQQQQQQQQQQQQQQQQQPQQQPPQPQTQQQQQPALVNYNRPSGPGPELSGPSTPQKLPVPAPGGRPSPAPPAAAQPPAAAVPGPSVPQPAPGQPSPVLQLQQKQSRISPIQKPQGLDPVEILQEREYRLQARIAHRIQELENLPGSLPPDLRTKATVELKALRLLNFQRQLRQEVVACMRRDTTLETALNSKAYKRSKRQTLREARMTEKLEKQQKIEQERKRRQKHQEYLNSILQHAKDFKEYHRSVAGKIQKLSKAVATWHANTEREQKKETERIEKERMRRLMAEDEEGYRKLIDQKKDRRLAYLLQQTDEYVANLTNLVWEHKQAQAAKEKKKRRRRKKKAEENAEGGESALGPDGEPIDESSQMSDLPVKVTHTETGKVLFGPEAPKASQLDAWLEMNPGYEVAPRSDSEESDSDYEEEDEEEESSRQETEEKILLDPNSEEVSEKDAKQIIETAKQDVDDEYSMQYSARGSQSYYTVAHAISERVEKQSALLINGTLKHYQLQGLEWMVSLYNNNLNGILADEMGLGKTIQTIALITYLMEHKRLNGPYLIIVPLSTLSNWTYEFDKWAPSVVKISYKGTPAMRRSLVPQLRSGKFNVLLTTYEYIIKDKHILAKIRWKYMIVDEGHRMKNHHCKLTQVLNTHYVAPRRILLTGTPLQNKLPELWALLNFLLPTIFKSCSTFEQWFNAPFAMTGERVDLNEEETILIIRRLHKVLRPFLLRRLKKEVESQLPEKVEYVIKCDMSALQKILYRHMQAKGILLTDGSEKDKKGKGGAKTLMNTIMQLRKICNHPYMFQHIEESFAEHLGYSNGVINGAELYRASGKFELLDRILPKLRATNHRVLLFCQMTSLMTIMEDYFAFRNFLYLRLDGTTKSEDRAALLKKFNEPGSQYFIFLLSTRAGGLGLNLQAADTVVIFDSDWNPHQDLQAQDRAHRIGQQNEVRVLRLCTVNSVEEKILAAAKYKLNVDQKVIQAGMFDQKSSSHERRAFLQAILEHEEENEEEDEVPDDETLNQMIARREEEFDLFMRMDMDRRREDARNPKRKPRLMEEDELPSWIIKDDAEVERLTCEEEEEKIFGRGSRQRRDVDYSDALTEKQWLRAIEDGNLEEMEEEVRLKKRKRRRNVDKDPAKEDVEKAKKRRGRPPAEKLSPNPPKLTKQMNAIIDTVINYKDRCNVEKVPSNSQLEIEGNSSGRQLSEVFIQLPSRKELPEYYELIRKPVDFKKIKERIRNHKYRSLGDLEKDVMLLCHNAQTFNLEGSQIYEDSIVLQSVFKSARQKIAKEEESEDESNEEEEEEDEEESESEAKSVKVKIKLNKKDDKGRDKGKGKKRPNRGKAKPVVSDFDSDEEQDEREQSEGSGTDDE

According to patent US20260092071A1, “COMPOUNDS AND COMPOSITIONS AS SMARCA2/4 DEGRADERS AND USES THEREOF” (REGENTS OF THE UNIVERSITY OF MICHIGAN, priority 2022, published 2026):

How the values were obtained:
SMARCA4 = SMARCA4 (Homo sapiens, UniProt P51532); assay: HiBit assay in engineered HT1080 CRISPR knock-in cell, 6 hrs (B series), SMARCA4; assay type: cell-based; settings: HT1080 CRISPR knock-in cells, 6 hrs incubation
SMARCA2 = SMARCA2 (Homo sapiens, UniProt P51531); assay: HiBit assay in engineered HT1080 CRISPR knock-in cell, 6 hrs (B series), SMARCA2; settings: HT1080 CRISPR knock-in cells, 6 hrs incubation

Question: How did the “SMARC A4 HT1080 HiBit Dmax(%)” value (SMARCA4) turn out when `Cc1ncsc1-c1ccc([C@H](C)NC(=O)[C@@H]2C[C@@H](O)CN2C(=O)[C@@H](c2cc(OC3CCC(N4CCC(c5ccc6c(c5)-n5c(nc(=O)c7c(Cl)cccc75)C6(C)C)CC4)CC3)no2)C(C)C)cc1` (stereo partly drawn) [Compound B81, (2S,4R)-1-((R)-2-(3-((4-(4-(4-chloro-7,7-dimethyl-5-oxo-5,7-dihydroindolo[1,2-a]quinazolin-10-yl)piperidin-1-yl)cyclohexyl)oxy)isoxazol-5-yl)-3-methylbutanoyl)-4-hydroxy-N-((S)-1-(4-(4-methylthiazol-5-yl)phenyl)ethyl)pyrrolidine-2-carboxamide] was run?
Answer: The value was “A (A (>90% degradation))”.

Question: What about the DC50 (SMARCA4; read-out: SMARC A4 HT1080 HiBit DC50) of the same molecule?
Answer: The DC50 was < 0.1 µM.

Question: What about the “SMARC A2 HT1080 HiBit Dmax (%)” value (SMARCA2) of the same molecule?
Answer: The value was “A (A (>90% degradation))”.

Question: And the DC50 (SMARCA2; read-out: SMARC A2 HT1080 HiBit DC50)?
Answer: Its DC50 is < 0.1 µM.
